For series [1], the target named is T1, recombinant human M5 muscarinic acetylcholine receptor (Homo sapiens, UniProt P08912).
T1 construct: expressed in transfected cells; host or cells: CHO cells (membranes)
Kind of series: Muscarinic M5 receptor radioligand binding. Particulars: 3H-N-Methylscopolamine 0.8 nM, CHO cell membranes.

Chains of the proteins cited; added tags and fusions are not shown.
UniProt P08912, whole entry: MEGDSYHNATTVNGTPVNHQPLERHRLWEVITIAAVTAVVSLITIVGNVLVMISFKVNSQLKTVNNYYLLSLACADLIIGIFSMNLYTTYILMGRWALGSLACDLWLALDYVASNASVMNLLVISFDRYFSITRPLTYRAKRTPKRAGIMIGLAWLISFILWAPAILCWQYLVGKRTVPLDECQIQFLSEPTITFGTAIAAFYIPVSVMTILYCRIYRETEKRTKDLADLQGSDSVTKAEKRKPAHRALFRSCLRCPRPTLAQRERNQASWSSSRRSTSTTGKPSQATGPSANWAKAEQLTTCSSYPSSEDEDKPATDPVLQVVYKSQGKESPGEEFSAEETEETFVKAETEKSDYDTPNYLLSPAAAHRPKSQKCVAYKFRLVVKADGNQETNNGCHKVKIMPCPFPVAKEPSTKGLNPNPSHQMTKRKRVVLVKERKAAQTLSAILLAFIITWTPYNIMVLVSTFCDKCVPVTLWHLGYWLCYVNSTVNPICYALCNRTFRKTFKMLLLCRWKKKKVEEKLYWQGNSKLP
UniProt P08173, whole entry: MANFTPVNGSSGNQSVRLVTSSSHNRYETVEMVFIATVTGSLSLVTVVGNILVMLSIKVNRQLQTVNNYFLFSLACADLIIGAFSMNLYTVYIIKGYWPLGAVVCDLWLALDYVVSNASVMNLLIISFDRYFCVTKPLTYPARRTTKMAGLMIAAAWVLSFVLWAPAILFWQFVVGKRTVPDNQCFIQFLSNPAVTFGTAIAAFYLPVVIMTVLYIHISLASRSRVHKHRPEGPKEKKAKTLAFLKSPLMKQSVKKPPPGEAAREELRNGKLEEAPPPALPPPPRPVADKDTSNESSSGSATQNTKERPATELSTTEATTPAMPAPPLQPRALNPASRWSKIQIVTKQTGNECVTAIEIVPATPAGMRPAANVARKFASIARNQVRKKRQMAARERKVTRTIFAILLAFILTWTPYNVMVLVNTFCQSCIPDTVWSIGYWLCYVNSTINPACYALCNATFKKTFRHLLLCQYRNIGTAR

The target of series [2] is T2, recombinant human M4 muscarinic acetylcholine receptor (Homo sapiens, UniProt P08173).
T2 construct: expressed in transfected cells; host or cells: CHO cells (membranes)
Nature of the series: Muscarinic M4 receptor radioligand binding. The conditions noted are these: 3H-N-Methylscopolamine 0.8 nM, CHO cell membranes.

The conditions of series [3]: rat, in vivo, iv, 5 mg/kg, 1 h.
Series [4] in a line: in vivo. The conditions noted are these: rat, iv, 5 mg/kg, Brain/plasma ratio Mean.

As a reminder, the pKi is the negative decadic logarithm of the Ki, by convention in mol/L. By Kp is commonly meant the ratio of the level in a tissue or fluid to that in plasma or blood.

pKi: −log10 of the molar value.

Consider mPEG9-N-promethazine, for which the pKi in series [1] was 5.69; in series [2], 6.34.

On to `CC(CN1c2ccccc2Sc2ccccc21)N(C)C` (stereo not shown) [Promethazine, reference compound], for which the “Brain/plasma ratio Mean” value in series [3] came to 39.926. For the same compound, the partition ratio (Kp) at 1 h in series [4] was 39.9.
